## Yeast mating assay 2: variants of the scFv Ab-91

All variants were tested on one target, the spike HR2 peptide PDVDLGDISGINAS (SARS-CoV-2).

The variants keep the light chain, the linker and the frameworks of Ab-91 (scFv order VL, a (GGGGS)3 linker, VH).
VL: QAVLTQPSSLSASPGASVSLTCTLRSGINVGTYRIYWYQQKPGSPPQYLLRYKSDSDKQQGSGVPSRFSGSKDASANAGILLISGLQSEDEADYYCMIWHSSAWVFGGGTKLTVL
VH: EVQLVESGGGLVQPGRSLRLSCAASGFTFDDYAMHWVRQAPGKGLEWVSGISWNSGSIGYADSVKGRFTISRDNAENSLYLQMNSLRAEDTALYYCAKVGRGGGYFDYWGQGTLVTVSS

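Phage display of a naive human antibody library on the peptide gave the parent. In library AAYL51, one, two or three CDR residues were substituted; doubles and triples were drawn at random. Affinity was read by AlphaSeq, a pooled yeast mating assay with surface-displayed partners. The frequency of each diploid, read from paired DNA barcodes, reflects how well the two displayed proteins bind. Each replicate has its own calibration line, from reference interactions of the BCL2 family. There are three technical replicates.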

Substitutions are numbered in sequence along the VH above, starting at 1 (not Kabat).
Values are log10 of the apparent Kd in nM; lower means stronger binding.
Averages over replicates are reported, and they cover detected replicates only.
Where no diploid with the target was found in that replicate, the entry reads "ND": below detection, most likely a poor binder, though not proof of it.
In this assay the parent's reference entry averaged 1.86; its copy inside this library read 0.88.
Three control strains display no target. For library AAYL51, 21% of the pairings with them gave a signal, with a median of 4.54 and one signal in twenty below 3.26, so weak values seen in few replicates may be background. The control count says in how many pairings with the empty strains this scFv gave a signal, with their mean in brackets.

changes	log10 Kd (nM) by replicate	mean, log10 nM	empty controls
V99R/Y105G	1.18 / 1.21 / 0.64	1.01	5 of 9 (5.44)
F27N/G102R	3.82 / 4.44 / 3.68	3.98	3 of 9 (5.03)
G104Q/Y105K	1.31 / 1.31 / 0.82	1.15	2 of 9 (3.52)
W53Y/G100M	ND / ND / ND	ND	0 of 9
F29A/N54K/A61P	ND / ND / ND	ND	0 of 9
G50A/R101S/D107Q	ND / ND / 4.67	4.67	1 of 9 (3.53)
A33R/N54S/V64I	ND / ND / ND	ND	1 of 9 (3.51)
G26E/F27H/K65R	ND / ND / ND	ND	0 of 9
G26K/G103Y/Y108I	ND / ND / ND	ND	0 of 9
S55V/Y60V/S63G	ND / 4.43 / ND	4.43	0 of 9
Y32D/Y60M/V64R	ND / ND / ND	ND	2 of 9 (3.64)
A33V/S57Q/Y108T	ND / 4.63 / ND	4.63	3 of 9 (4.39)
H35K/I58W/G103N	ND / 4.42 / ND	4.42	0 of 9
F27P/N54V/F106E	ND / ND / ND	ND	0 of 9
G26I/G50I/I51W	4.55 / 4.02 / 4.63	4.40	4 of 9 (5.20)
S63M/K65S/F106V	ND / ND / ND	ND	0 of 9
S52E/K65N/G102E	4.14 / ND / 4.06	4.10	1 of 9 (2.85)
G50W/D107L	ND / 3.44 / ND	3.44	0 of 9
I51S/W53V	ND / ND / ND	ND	6 of 9 (4.94)
H35E/W53C/S63C	4.01 / ND / ND	4.01	0 of 9
G26D/D31R/G50A	4.60 / 5.72 / ND	5.16	1 of 9 (4.57)
S57T/G59R	ND / 3.60 / 4.15	3.88	3 of 9 (4.24)
W53I/I58T/G102M	2.95 / 2.72 / 2.60	2.76	0 of 9
D31S/S55V/F106C	2.78 / 2.95 / 2.81	2.85	4 of 9 (5.14)
W53S/D62Q/D107Q	2.27 / 3.03 / ND	2.65	0 of 9
M34N/S55C/S57C	ND / ND / ND	ND	0 of 9
Y32D/S55I/Y108T	4.10 / ND / ND	4.10	3 of 9 (4.12)
Y32H/S63Q/G103E	ND / 4.00 / ND	4.00	3 of 9 (4.77)
Y60R/Y105P/Y108Q	ND / ND / ND	ND	0 of 9
M34T/G59V/Y105W	ND / ND / ND	ND	0 of 9

The 2 strongest on average among those seen in every replicate, once more:

| changes | log10 Kd (nM) by replicate | mean, log10 nM | empty controls |
|---|---|---|---|
| V99R/Y105G | 1.18 / 1.21 / 0.64 | 1.01 | 5 of 9 (5.44) |
| G104Q/Y105K | 1.31 / 1.31 / 0.82 | 1.15 | 2 of 9 (3.52) |

The measurements come from Engelhart et al. 2022 (doi:10.1038/s41597-022-01779-4) through the FLAb antibody collection.